According to patent US7488745B2, “Compounds for the treatment of inflammatory disorders” (Schering Corporation, priority 2004, dated 2009):
Blank lines part the entries; values can stand above or below the compound they belong to.

Chains of the proteins cited; added tags and fusions are not shown. Residues count along the entry.
UniProt P78536, 215-477 S266A/N452Q limits assumed: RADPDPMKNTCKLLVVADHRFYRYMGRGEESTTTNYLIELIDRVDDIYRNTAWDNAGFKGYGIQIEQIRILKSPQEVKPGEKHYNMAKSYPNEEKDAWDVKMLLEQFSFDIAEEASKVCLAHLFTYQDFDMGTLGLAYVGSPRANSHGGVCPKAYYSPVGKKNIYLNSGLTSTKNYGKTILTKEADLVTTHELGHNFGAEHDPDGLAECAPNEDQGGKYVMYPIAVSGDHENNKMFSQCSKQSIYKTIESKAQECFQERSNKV

Target: purified catalytic domain of recombinant human TACE (rhTACEc) (Homo sapiens, UniProt P78536, N452Q/S266A)
Assay: TACE kinetic assay: cleavage of internally quenched peptide substrate SPDL-3 (fluorescence)
[1] = Ki Rating, TACE inhibitory activity, Table 3000
[2] = Ki (nM), TABLE 6000, Ki printed as class symbols A-D
[3] = Ki (nM), TACE inhibitory activity, class letters
[4] = Ki (nM), Specific TACE inhibitory activity (Ki values)

SMILES: O=C1NC(=O)[C@](CN2Cc3ccc(OCC#CCO)cc3C2=O)(c2ccc(-c3cccnc3)cc2)N1 [Compound 4015]
Ki [1]: < 10 nM

SMILES: O=C1NC(=O)[C@](CN2Cc3ccc(F)cc3C2=O)(c2cn(Cc3ccccc3)nn2)N1 [Compound 9262]
Ki [2]: 10 to 100 nM

SMILES: O=C1NC(=O)C(CN2Cc3ccc(F)cc3C2=O)(c2ccc(-c3ccc(-n4ccnc4)cc3)cc2)N1 (stereo not shown) [Compound 7005]
Ki [1]: 10 to 100 nM

SMILES: CC(C)(C)OC(=O)Oc1ccc2c(c1)CN(CC1(c3ccccc3)NC(=O)NC1=O)C2=O (stereo not shown) [Compound 190]
Ki [3]: < 10 nM

SMILES: COc1ccc2c(c1)C(=O)N(C[C@@]1(c3cc(-c4ccccc4)nn3-c3ccccc3)NC(=O)NC1=O)C2 [Compound 9260]
Ki [2]: 10 to 100 nM

SMILES: O=C1NC(=O)C(CN2Cc3cc(Cl)ccc3C2=O)(CN2Cc3cc(Cl)ccc3C2=O)N1 [Compound 34]
Ki [3]: 10 to 100 nM

SMILES: O=C1NC(=O)[C@](CN2Cc3ccc(F)cc3C2=O)(c2ccc(-c3cc[n+]([O-])cc3)cc2)N1 [compound 247]
Ki [3]: < 10 nM

SMILES: COc1ccc2c(c1)C(=O)N(C[C@@]1(c3ccc(Oc4ccnc5ccccc45)cc3)NC(=O)NC1=O)C2 [Compound 9615]
Ki [2]: < 10 nM

SMILES: O=C1NC(=O)C(CN2Cc3cc(OCc4cccc5nonc45)ccc3C2=O)(c2ccc(F)cc2)N1 (stereo not shown) [Compound 7002]
Ki [1]: 10 to 100 nM

SMILES: CCNC(=O)N1CCC(C2(CN3Cc4cc(OC)ccc4C3=O)NC(=O)NC2=O)CC1 (stereo not shown) [Compound 253]
Ki [3]: 10 to 100 nM

SMILES: COc1ccc2c(c1)C(=O)N(C[C@@]1(c3cn(C4CCCC4)nn3)NC(=O)NC1=O)C2 [Compound 9265]
Ki [2]: < 10 nM

SMILES: O=C1NC(=O)C(CN2Cc3cc(OCCO)c(F)cc3C2=O)(c2ccc(F)cc2)N1 (stereo not shown) [Compound 2031F]
Ki [1]: 10 to 100 nM

SMILES: O=C1NC(=O)C(CN2Cc3ccc(C(F)(F)F)cc3C2=O)(c2ccc(F)cc2)N1 (stereo not shown) [Compound 5003]
Ki [1]: 10 to 100 nM

SMILES: O=C1NC(=O)[C@@](CN2Cc3ccc(F)cc3C2=O)(c2ccc(-c3ccccc3C(F)(F)F)cc2)N1 [Compound 129]
Ki [3]: 100 to 1000 nM

SMILES: CN(Cc1cccnc1)c1cc2c(cc1F)C(=O)N(CC1(c3ccc(F)cc3)NC(=O)NC1=O)C2 (stereo not shown) [Compound 2030D]
Ki [1]: 10 to 100 nM

SMILES: COc1ccc2c(c1)C(=O)N(C[C@@]1(c3ccc(Oc4ccc5cnccc5c4)cc3)NC(=O)NC1=O)C2 [Compound 9612]
Ki [2]: < 10 nM

SMILES: CC#CCOc1ccc2c(c1)CN(CC1(c3ccc(F)cc3)NC(=O)NC1=O)C2=O (stereo not shown) [Compound 211]
Ki [3]: < 10 nM

SMILES: COc1ccc2c(c1)CN(CC1(CN[C@H]3CC[C@@H](NC(=O)OC(C)(C)C)CC3)NC(=O)NC1=O)C2=O (stereo partly shown) [Compound 292]
Ki [3]: 10 to 100 nM

SMILES: COc1ccc2c(c1)C(=O)N(CC1(c3cnc(-c4cccnc4)nc3)NC(=O)NC1=O)C2 (stereo not shown) [Compound 9653]
Ki [2]: < 10 nM

SMILES: CCNc1nnc(CCC2(CN3Cc4ccc(Cl)cc4C3=O)NC(=O)NC2=O)o1 (stereo not shown) [compound 282]
Ki [3]: 10 to 100 nM

SMILES: CCCc1cc([C@]2(CN3Cc4ccc(OC)cc4C3=O)NC(=O)NC2=O)on1 [Compound 9257]
Ki [2]: < 10 nM

SMILES: O=C1NC(=O)[C@@](CN2Cc3ccc(F)cc3C2=O)(c2nc3ccccc3s2)N1 [Compound 182]
Ki [3]: 10 to 100 nM

SMILES: COc1ccc2c(c1)CN(CC1(c3ccc4cccnc4c3)NC(=O)NC1=O)C2=O (stereo not shown) [Compound 263]
Ki [3]: < 10 nM

SMILES: COc1ccc2c(c1)C(=O)N(C[C@@]1(c3cc(-c4ccccc4)nn3-c3ccccn3)NC(=O)NC1=O)C2 [Compound 9931]
Ki [2]: < 10 nM

SMILES: CC#CCOc1ccc2c(c1)C(=O)N(C[C@@]1(c3ccc(-c4cnn5ccccc45)cc3)NC(=O)NC1=O)C2 [Compound 6023]
Ki [1]: < 10 nM

SMILES: COc1ccc2c(c1)CN(CC1(C3CCN(S(=O)(=O)c4ccc(F)cc4F)CC3)NC(=O)NC1=O)C2=O (stereo not shown) [Compound 254]
Ki [3]: 10 to 100 nM

SMILES: O=C1NC(=O)C(CN2Cc3cc(OCc4ccccc4)c(F)cc3C2=O)(c2ccc(F)cc2)N1 (stereo not shown) [Compound 2031A]
Ki [1]: 10 to 100 nM

SMILES: CC#CCOc1ccc2c(c1)C(=O)N(C[C@@]1(c3ccc(-c4ccc5c(cnn5C)c4)cc3)NC(=O)NC1=O)C2 [Compound 9701]
Ki [2]: < 10 nM

SMILES: O=C1NC(=O)[C@](CN2Cc3ccc(F)cc3C2=O)(c2ccc(-c3ncccn3)cc2)N1 [Compound 161]
Ki [3]: < 10 nM

SMILES: COc1ccc2c(c1)C(=O)N(C[C@@]1(/C=C/c3cccc(C(C)C)c3)NC(=O)NC1=O)C2 [Compound 9239]
Ki [2]: < 10 nM

SMILES: COc1ccc2c(c1)C(=O)N(C[C@@]1(/C(Cl)=C\c3ccc4ccccc4n3)NC(=O)NC1=O)C2 [Compound 9235]
Ki [2]: < 10 nM

SMILES: O=C1NC(=O)[C@](CN2Cc3ccc(F)cc3C2=O)(c2ccc(-c3ccc(-n4ccnc4)cc3)cc2)N1 [Compound 9746]
Ki [2]: < 10 nM

SMILES: COc1ccc2c(c1)C(=O)N(C[C@@]1(c3cc4cc(C5(C)NC(=O)NC5=O)ccc4o3)NC(=O)NC1=O)C2 (stereo partly shown) [Compound 9938]
Ki [4]: 0.37 nM | Ki [2]: < 10 nM

SMILES: CC1(CN2Cc3c(ccc(O)c3I)C2=O)NC(=O)NC1=O (stereo not shown) [Compound 206]
Ki [3]: 100 to 1000 nM

SMILES: O=C1NC(=O)[C@](CN2Cc3ccc(OCC4CC4)cc3C2=O)(c2ccc(-c3cccc4cccnc34)cc2)N1 [Compound 3001]
Ki [1]: 10 to 100 nM

SMILES: COc1cccc2c1CN(CC1(c3ccc(F)cc3)NC(=O)NC1=O)C2=O (stereo not shown) [Compound 103]
Ki [3]: > 1000 nM

SMILES: COc1ccc2c(c1)C(=O)N(C[C@@]1(c3cnn(C(C)(C)C)c3)NC(=O)NC1=O)C2 [Compound 9003J]
Ki [2]: < 10 nM

SMILES: O=C1NC(=O)[C@](CN2Cc3ccc(OCC4CC4)cc3C2=O)(c2ccc(-c3cnc(O)c(Cl)c3)cc2)N1 [Compound 8002]
Ki [1]: < 10 nM

SMILES: COc1ccc2c(c1)CN(CC1(C3CCN(S(=O)(=O)c4ccccn4)CC3)NC(=O)NC1=O)C2=O (stereo not shown) [Compound 257]
Ki [3]: 10 to 100 nM

SMILES: O=C1NC(=O)C(CN2Cc3cc(O)ccc3C2=O)(c2ccccc2)N1 (stereo not shown) [Compound 188]
Ki [3]: < 10 nM

SMILES: COc1ccc2c(c1)C(=O)N(C[C@@]1(c3cc4c(F)cncc4o3)NC(=O)NC1=O)C2 [Compound 9226]
Ki [2]: < 10 nM

SMILES: C=C[C@]1(CN2Cc3ccc(OC)cc3C2=O)NC(=O)NC1=O [Compound 9246]
Ki [2]: 10 to 100 nM

SMILES: COc1ccc2c(c1)CN(CC1(CN(C)C)NC(=O)NC1=O)C2=O (stereo not shown) [Compound 37]
Ki [3]: 100 to 1000 nM

SMILES: O=C1NC(=O)C(CN2Cc3ccc(OCC(F)(F)F)cc3C2=O)(c2ccc(F)cc2)N1 (stereo not shown) [Compound 2021F]
Ki [1]: 100 to 1000 nM

Now from value to compound:

Ki [2]: < 10 nM
SMILES: COc1ccc2c(c1)C(=O)N(C[C@@]1(c3ccc(-c4nccnc4Cl)cc3)NC(=O)NC1=O)C2 [Compound 9913]

Ki [2]: < 10 nM
SMILES: COc1ccc2c(c1)C(=O)N(C[C@@]1(c3ccc(-c4ccc5nccn5c4)cc3)NC(=O)NC1=O)C2 [Compound 9703]

Ki [1]: < 10 nM
SMILES: COc1ccc2c(c1)C(=O)N(C[C@@]1(c3ccc(-c4ncnc5c4ncn5C(C)C)cc3)NC(=O)NC1=O)C2 [Compound 3039]

Ki [2]: < 10 nM
SMILES: COc1ccc2c(c1)C(=O)N(C[C@@]1(c3ccc(-c4ccc5nn(C)c(C)c5c4)cc3)NC(=O)NC1=O)C2 [Compound 9705]

Ki [3]: < 10 nM
SMILES: COc1ccc2c(c1)CN(CC1(c3ccc(-c4ccccc4)cc3)NC(=O)NC1=O)C2=O (stereo not shown) [Compound 14]

Ki [2]: < 10 nM
SMILES: COc1ccc2c(c1)C(=O)N(C[C@@]1(c3ccc(-c4cc(C)c5c(cnn5C)c4)cc3)NC(=O)NC1=O)C2 [Compound 9737]

Ki [2]: < 10 nM
SMILES: COc1ccc2c(c1)C(=O)N(C[C@@]1(c3ccc(Oc4cccnc4)cc3)NC(=O)NC1=O)C2 [Compound 9611]

Ki [4]: 2.24 nM | Ki [1]: < 10 nM
SMILES: COc1ccc2c(c1)C(=O)N(C[C@@]1(c3ccc(-c4ccc5nn(CC6CC6)cc5c4)cc3)NC(=O)NC1=O)C2 [Compound 7011]

Ki [2]: < 10 nM
SMILES: COc1ccc2c(c1)C(=O)N(C[C@@]1(c3ccc(-c4cc(C)c5c(cnn5C(C)C)c4)cc3)NC(=O)NC1=O)C2 [Compound 9735]

Ki [2]: < 10 nM
SMILES: COc1ccc2c(c1)C(=O)N(C[C@@]1(c3ccc(-c4ccccc4-c4nnnn4C)cc3)NC(=O)NC1=O)C2 [Compound 9756]

Ki [2]: < 10 nM
SMILES: COc1ccc2c(c1)C(=O)N(C[C@@]1(c3ccc(-c4cn(C)nc4C#N)cc3)NC(=O)NC1=O)C2 [Compound 9717]

Ki [2]: < 10 nM
SMILES: COc1ccc2c(c1)C(=O)N(C[C@@]1(c3cc(-c4ccccc4)nn3C)NC(=O)NC1=O)C2 [Compound 9259]

Ki [1]: < 10 nM
SMILES: COc1ccc2c(c1)C(=O)N(C[C@@]1(c3ccc(-c4ccnc(C)c4)cc3)NC(=O)NC1=O)C2 [Compound 8022]

Ki [4]: 2.75 nM | Ki [1]: < 10 nM
SMILES: COc1ccc2c(c1)C(=O)N(C[C@@]1(c3ccc(-c4ccc5c(cnn5CC5CC5)c4)cc3)NC(=O)NC1=O)C2 [Compound 7012]

Ki [2]: < 10 nM
SMILES: COc1ccc2c(c1)C(=O)N(C[C@@]1(c3ccc(-c4cc(C)c5nc[nH]c5c4)cc3)NC(=O)NC1=O)C2 [Compound 9731]

Ki [2]: < 10 nM
SMILES: COc1ccc2c(c1)C(=O)N(C[C@@]1(c3ccc(-c4nc5ccccc5nc4O)cc3)NC(=O)NC1=O)C2 [Compound 9916]

Ki [1]: < 10 nM
SMILES: COc1ccc2c(c1)C(=O)N(C[C@@]1(c3ccc(-c4c(C)nn(C)c4C)cc3)NC(=O)NC1=O)C2 [Compound 3033]

Ki [2]: < 10 nM
SMILES: COCCOc1ccc([C@]2(CN3Cc4ccc(OC)cc4C3=O)NC(=O)NC2=O)cc1 [Compound 9625]

Ki [2]: < 10 nM
SMILES: COc1ccc2c(c1)C(=O)N(C[C@@]1(c3ccc(-c4ncccc4F)cc3)NC(=O)NC1=O)C2 [Compound 9915]

Ki [2]: < 10 nM
SMILES: COc1ccc2c(c1)C(=O)N(C[C@@]1(c3ccc(-c4ccccc4-c4nnn(C)n4)cc3)NC(=O)NC1=O)C2 [Compound 9755]

Ki [1]: < 10 nM
SMILES: COc1ccc2c(c1)C(=O)N(C[C@@]1(c3ccc(-c4cc(C)c5nc[nH]c5c4)cc3)NC(=O)NC1=O)C2 [Compound 7009]

Ki [1]: < 10 nM
SMILES: O=C1NC(=O)[C@](CN2Cc3ccc(OC(F)F)cc3C2=O)(c2ccc(Br)cc2)N1 [Compound 7021]

Ki [2]: < 10 nM
SMILES: Cc1n[nH]c(C)c1-c1ccc([C@]2(CN3Cc4ccc(OC(F)F)cc4C3=O)NC(=O)NC2=O)cc1 [Compound 9512]

Ki [1]: < 10 nM
SMILES: COc1ccc2c(c1)C(=O)N(C[C@@]1(c3ccc(-c4ccc5c(cnn5C)c4)cc3)NC(=O)NC1=O)C2 [Compound 6012]

Ki [2]: < 10 nM
SMILES: COc1ccc2c(c1)C(=O)N(C[C@@]1(c3ccc(OCc4ccccn4)cc3)NC(=O)NC1=O)C2 [Compound 9627]

Ki [1]: < 10 nM
SMILES: COc1ccc2c(c1)C(=O)N(C[C@@]1(c3ccc(-c4ccc5nn(C)cc5c4)cc3)NC(=O)NC1=O)C2 [Compound 6011]
